pKi: −log10 of the molar value.
Target: Adenosine receptor A1 (Rattus norvegicus, UniProt P25099)
Assay: Tested for the displacement [3H]PIA from Adenosine A1 receptor in rat brain membrane
Type: cell membranes

By UniProt entry, the sequences of proteins in these tests, tags left out.
UniProt P25099, whole entry: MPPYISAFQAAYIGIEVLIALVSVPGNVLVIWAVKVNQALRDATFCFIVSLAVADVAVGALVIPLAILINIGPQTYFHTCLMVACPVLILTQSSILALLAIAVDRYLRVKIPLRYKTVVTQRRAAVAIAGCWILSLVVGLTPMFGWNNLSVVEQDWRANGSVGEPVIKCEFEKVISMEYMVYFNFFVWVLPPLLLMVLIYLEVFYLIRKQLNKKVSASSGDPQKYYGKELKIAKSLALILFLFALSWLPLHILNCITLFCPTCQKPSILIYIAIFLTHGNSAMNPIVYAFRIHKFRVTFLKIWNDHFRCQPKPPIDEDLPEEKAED

**Q.** How did the pKi turn out when `Nc1nc2ccc(Cl)cc2c2nc(-c3ccco3)nn12` [CGS-15943] was run?
**A.** 6.57

**Q.** How did the pKi turn out when `O=c1c(-c2ccc(O)cc2)coc2cc(O)cc(O)c12` [GENISTEIN] was run?
**A.** 5.30
